This is a selection: effects in other tests are not listed, and their absence says nothing.
Tests used:
[1] = cited from earlier work
[2] = Solubility of Sufentanil in additive (permeation enhancer); conditions: 30 min stirring

CCC(=O)N(c1ccccc1)C1(COC)CCN(CCc2cccs2)CC1
lipid solubility (log p) [1]: 3.95
Solubility ([2]; in Ethyl oleate, room temperature (around 25° C.)): 44.8 mg/g
Solubility ([2]; in Isopropyl myristate, room temperature (around 25° C.)): 44.9 mg/g
Solubility ([2]; in Isopropyl palmitate, room temperature (around 25° C.)): 36.7 mg/g
Solubility ([2]; in Isostearyl alcohol, room temperature (around 25° C.)): 65.5 mg/g
Solubility ([2]; in Octyldodecanol, room temperature (around 25° C.)): 60.2 mg/g
Solubility ([2]; in Polysorbate 80, room temperature (around 25° C.)): 36.9 mg/g
Solubility ([2]; in Sorbitan trioleate, room temperature (around 25° C.)): 103.8 mg/g

Reference: patent US20070202156A1
